From patent US12441726B2, “Compounds and uses thereof” (Foghorn Therapeutics Inc., priority 2020, dated 2025) come the findings set out here.

Protein sequences, listed by entry. Tags and fused reporters are not part of them.
UniProt P51532, whole entry: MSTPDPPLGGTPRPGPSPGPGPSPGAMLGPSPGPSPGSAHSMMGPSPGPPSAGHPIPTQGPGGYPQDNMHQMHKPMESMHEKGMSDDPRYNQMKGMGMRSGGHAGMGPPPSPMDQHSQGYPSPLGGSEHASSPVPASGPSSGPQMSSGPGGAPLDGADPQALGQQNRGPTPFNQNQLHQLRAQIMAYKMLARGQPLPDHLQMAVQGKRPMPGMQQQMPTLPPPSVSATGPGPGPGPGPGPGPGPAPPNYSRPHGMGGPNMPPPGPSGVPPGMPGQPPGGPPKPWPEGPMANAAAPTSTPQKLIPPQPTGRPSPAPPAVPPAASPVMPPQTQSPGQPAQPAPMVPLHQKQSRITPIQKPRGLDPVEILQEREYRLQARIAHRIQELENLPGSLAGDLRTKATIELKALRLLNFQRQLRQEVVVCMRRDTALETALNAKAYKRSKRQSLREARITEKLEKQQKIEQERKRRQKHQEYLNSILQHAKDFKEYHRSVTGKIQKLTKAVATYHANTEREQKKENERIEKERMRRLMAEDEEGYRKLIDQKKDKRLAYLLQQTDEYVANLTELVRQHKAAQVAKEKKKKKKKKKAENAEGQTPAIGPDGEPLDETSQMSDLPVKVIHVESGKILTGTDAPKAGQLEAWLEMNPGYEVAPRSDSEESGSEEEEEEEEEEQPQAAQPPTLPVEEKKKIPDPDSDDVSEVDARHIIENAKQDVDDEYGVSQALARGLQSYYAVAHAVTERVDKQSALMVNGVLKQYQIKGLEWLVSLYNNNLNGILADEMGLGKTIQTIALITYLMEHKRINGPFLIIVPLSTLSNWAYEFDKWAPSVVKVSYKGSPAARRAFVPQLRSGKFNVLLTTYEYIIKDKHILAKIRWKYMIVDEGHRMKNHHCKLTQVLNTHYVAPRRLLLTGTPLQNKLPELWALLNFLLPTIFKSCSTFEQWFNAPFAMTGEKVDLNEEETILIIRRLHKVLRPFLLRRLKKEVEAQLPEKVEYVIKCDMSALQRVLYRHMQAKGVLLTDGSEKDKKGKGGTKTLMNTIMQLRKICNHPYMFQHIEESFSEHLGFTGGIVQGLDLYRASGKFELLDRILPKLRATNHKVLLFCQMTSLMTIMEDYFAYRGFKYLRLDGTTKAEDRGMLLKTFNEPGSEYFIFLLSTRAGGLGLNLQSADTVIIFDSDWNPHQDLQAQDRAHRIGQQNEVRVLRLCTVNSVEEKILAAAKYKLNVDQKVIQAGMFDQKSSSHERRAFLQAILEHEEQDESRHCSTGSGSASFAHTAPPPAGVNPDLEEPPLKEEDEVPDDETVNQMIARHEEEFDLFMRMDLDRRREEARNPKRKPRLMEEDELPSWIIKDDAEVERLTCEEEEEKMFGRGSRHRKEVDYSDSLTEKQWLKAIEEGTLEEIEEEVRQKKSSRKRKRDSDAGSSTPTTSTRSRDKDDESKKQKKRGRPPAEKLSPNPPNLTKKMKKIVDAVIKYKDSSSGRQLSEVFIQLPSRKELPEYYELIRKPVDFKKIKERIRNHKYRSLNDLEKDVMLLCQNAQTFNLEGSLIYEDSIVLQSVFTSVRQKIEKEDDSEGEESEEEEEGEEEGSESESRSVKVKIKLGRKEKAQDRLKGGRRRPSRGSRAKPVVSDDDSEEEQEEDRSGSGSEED
UniProt P51531, whole entry: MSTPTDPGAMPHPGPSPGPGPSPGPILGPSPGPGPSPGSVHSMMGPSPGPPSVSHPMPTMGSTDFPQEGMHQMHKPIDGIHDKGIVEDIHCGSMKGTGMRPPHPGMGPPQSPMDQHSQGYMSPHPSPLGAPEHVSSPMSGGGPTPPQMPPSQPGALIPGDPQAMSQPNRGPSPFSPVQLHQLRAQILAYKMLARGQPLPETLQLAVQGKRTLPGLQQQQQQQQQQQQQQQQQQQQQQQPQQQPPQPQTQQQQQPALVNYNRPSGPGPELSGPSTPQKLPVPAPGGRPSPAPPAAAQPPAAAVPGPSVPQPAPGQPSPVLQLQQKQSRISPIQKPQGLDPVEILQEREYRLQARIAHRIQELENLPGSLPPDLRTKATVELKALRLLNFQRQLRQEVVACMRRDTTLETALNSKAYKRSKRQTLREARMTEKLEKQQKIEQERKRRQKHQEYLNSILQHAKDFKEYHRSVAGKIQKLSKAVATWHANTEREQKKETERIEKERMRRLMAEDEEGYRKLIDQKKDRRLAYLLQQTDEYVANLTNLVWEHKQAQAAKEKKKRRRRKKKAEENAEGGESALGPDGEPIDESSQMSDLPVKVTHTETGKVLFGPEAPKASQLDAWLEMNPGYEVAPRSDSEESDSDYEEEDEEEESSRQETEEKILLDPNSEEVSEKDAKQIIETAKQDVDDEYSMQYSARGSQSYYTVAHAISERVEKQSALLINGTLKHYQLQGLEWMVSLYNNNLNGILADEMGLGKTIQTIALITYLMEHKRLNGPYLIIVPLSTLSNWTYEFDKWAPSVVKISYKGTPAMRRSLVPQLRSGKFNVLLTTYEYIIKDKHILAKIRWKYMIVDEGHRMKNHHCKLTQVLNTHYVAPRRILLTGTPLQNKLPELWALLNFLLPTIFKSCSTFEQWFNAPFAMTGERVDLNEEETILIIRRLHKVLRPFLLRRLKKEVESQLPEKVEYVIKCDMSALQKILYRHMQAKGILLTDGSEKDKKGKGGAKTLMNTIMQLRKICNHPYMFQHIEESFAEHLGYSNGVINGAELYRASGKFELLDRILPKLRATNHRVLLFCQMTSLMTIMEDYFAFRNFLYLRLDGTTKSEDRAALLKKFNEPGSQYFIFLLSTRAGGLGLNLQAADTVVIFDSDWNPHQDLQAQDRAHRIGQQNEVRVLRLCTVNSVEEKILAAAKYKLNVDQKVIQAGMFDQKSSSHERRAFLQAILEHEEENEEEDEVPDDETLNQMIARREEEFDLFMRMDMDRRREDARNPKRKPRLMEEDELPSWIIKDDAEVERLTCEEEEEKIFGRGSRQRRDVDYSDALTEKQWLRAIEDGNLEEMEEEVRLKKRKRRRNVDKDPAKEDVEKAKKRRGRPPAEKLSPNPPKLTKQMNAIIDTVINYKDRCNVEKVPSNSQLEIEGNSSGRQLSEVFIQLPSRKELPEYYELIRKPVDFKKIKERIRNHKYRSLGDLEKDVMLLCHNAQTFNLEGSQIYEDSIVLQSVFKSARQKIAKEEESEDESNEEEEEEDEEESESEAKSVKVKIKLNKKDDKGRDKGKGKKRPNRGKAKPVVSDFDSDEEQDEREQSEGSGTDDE

Test [1] deals with BRG-1 (Homo sapiens, UniProt P51532). Kind of test: ATPase catalytic activity assay (ADP-Glo), BRG-1.
For test [2], the target named is BRM (Homo sapiens, UniProt P51531). Description: ATPase catalytic activity assay (ADP-Glo), BRM. (In general: In ADP-Glo the light output rises with the ADP produced.)

Consider `C[C@@]1(C#N)COCc2ccc(C(=O)NCc3cc4nc(-c5cccc6c5cnn6CCO)ccc4cn3)cc21`, for which, in test [1] (30 nM BRG-1, 400 μM ATP), the “BRG1 Max % Inhibition” value amounted to 85%. Further, the concentration for half-maximal inhibition (IC50) (in general, the concentration that inhibits the measured activity by half) in test [1] (read-out: BRG1 ATPase: IC50, 30 nM BRG-1, 400 μM ATP) fell in the range of 500 to 1000 nM; in test [2] (read-out: BRM ATPase: IC50, 30 nM BRM, 400 μM ATP) it was 100 to 500 nM. For the same molecule, the “BRM Max % Inhibition” value in test [2] (30 nM BRM, 400 μM ATP) was determined as 96%.
